Here are results for 31 molecules from US10214512B2, “Factor XIA inhibitors” (MERCK SHARP & DOHME CORP., priority 2015, dated 2019).

By UniProt entry, the sequences of proteins in these tests, tags left out. Residues count along the entry.
UniProt P03951, 19-387 partner: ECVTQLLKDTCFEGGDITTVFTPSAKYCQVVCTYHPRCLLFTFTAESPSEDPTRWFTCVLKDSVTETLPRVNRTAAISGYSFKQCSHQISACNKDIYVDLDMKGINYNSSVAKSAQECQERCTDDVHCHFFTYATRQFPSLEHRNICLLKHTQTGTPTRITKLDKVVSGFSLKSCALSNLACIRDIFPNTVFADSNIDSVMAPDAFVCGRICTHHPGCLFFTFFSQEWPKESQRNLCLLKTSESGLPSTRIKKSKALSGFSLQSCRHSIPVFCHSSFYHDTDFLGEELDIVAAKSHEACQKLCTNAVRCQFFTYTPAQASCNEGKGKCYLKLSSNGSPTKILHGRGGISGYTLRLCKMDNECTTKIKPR
UniProt P03951, 388-625: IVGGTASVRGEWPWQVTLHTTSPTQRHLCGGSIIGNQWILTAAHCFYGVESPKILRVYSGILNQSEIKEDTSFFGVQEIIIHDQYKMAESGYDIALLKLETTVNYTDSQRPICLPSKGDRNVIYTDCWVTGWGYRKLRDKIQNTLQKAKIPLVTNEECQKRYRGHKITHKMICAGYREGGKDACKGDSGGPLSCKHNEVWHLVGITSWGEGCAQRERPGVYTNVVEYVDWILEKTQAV

Usually Ki stands for the equilibrium dissociation constant of an inhibitor or competing ligand from its target.

Molecules are shown by their SMILES.

The target of the test is purified human Factor XIa (Homo sapiens (Human), UniProt P03951). Briefly: Factor XIa Assay. The format is biochemical. The following applies: purified human Factor XIa 40 pM; substrate Z-Gly-Pro-Arg-AFC 100 μM; 50 mM HEPES pH 7.4; read-out: Human FXIa Ki. The procedure: The effectiveness of a compound of the present invention as an inhibitor of Coagulation Factor XIa can be determined using a relevant purified serine protease, and an appropriate synthetic substrate. The rate of hydrolysis of the chromogenic or fluorogenic substrate by the relevant serine protease was measured both in the absence and presence of compounds of the present invention. Assays were conducted at rt or at 37° C. […] A decrease in the rate of fluorescence change in the presence of inhibitor is indicative of enzyme inhibition. Such methods are known to one skilled in the art. The results of this assay are expressed as the inhibitory constant, Ki.
Factor XIa determinations were made in 50 mM HEPES buffer at pH 7.4 containing 150 mM NaCl, 5 mM CaCl2, and 0.1% PEG 8000 (polyethylene glycol; JT Baker or Fisher Scientific). Determinations were made using purified human Factor XIa at a final concentration of 40 pM (Sekisui Diagnostics) and he synthetic substrate, Z-Gly-Pro-Arg-AFC, TFA salt (Sigma #C0980) at a concentration of 100 μM.
Times required to achieve equilibration between enzyme and inhibitor were determined in control experiments. Initial velocities of product formation in the absence (Vo) or presence of inhibitor (Vi) were measured. Assuming competitive inhibition, and that unity is negligible compared Km/[S], [I]/e, and [I]/e (where [S], [I], and e respectively represent the total concentrations, of substrate, inhibitor and enzyme), the equilibrium constant (Ki) for dissociation of the inhibitor from the enzyme can be obtained from the dependence of Vo/Vi on [I] shown in the following equation.
On to `COC(=O)Nc1ccc2c(c1)NC(=O)[C@H](C)CCC[C@H](c1ccc(-c3c(F)ccc(Cl)c3F)c[n+]1[O-])c1cc-2ncc1F` (single isomer, unassigned) [Example 76-a], for which the Ki was 160 pM.

As to `COC(=O)Nc1ccc2c(c1)NC(=O)[C@H](C)CCC[C@@H](c1ccc(-c3c(OC(F)F)ccc(F)c3F)c[n+]1[O-])c1nc-2c(C)[nH]1` (single isomer, unassigned) [Example 150-d], the Ki was 20000 pM.

Consider `COC(=O)Nc1ccc2c(c1)NC(=O)CCCC[C@H](c1ccc(-c3c(F)cccc3-n3cc(C(F)(F)F)cn3)c[n+]1[O-])c1nc-2c(C)[nH]1` (single isomer, unassigned) [Example 137], for which the Ki is 2500 pM.

In the case of `COC(=O)Nc1ccc2c(c1)NC(=O)CCCC[C@H](c1ccc(-c3c(F)ccc(Cl)c3F)c[n+]1[O-])c1ccc(F)c-2c1` (single isomer, unassigned) [Example 68], the Ki is 520 pM.

Regarding `COC(=O)Nc1ccc2c(c1)NC(=O)CCCC[C@H](c1ccc(-c3c(F)cccc3OC(F)F)c[n+]1[O-])c1cccc-2c1` (single isomer, unassigned) [Example 34], the inhibition constant Ki came out at 1520 pM.

For `COC(=O)Nc1ccc2c(c1)NC(=O)C(C)CCCC(c1cc(OC)c(-c3c(F)ccc(Cl)c3F)c[n+]1[O-])c1cccc-2c1` (single isomer, unassigned) [Example 88-a, 5-(3-Chloro-2,6-difluorophenyl)-4-methoxy-2-(2^4-((methoxycarbonyl)amino)-5-methyl-4-oxo-3-aza-1(1,3),2(1,2) -dibenzenacyclononaphane-9-yl)pyridine 1-oxide], the Ki stood at 186000 pM.

For the molecule `COC(=O)Nc1ccc2c(c1)NC(=O)C(C)CCCC(c1cc(OC)c(-c3c(F)ccc(Cl)c3F)c[n+]1[O-])c1cccc-2c1` (single isomer, unassigned) [Example 88-c, 5-(3-Chloro-2,6-difluorophenyl)-4-methoxy-2-(2^4-((methoxycarbonyl)amino)-5-methyl-4-oxo-3-aza-1(1,3),2(1,2) -dibenzenacyclononaphane-9-yl)pyridine 1-oxide], the Ki is 197000 pM.

As for `COC(=O)Nc1ccc2c(c1)NC(=O)[C@H](C)CCC[C@H](c1ccc(-c3cc(Cl)ccc3OC(F)(F)F)c[n+]1[O-])c1cccc-2c1` (single isomer, unassigned) [Example 77-a], the inhibition constant (Ki) is 850 pM.

For the molecule `COC(=O)Nc1ccc2c(c1)NC(=O)[C@@H](C)CCC[C@H](c1ccc(-c3c(F)cccc3F)c[n+]1[O-])c1nc-2c(C2CC2)[nH]1` (single isomer, unassigned) [Example 145-c], the Ki was determined as 290 pM.

In the case of `COC(=O)Nc1ccc2c(c1)NC(=O)[C@@H](C)CCC[C@H](c1ccc(-c3cc(F)ccc3OC(F)(F)F)c[n+]1[O-])c1nc-2c(C)[nH]1` (single isomer, unassigned) [Example 149-c], the Ki stood at 690 pM.

As for `COC(=O)Nc1ccc2c(c1)NC(=O)CCCCC(c1ccc(-c3c(F)cccc3OC(F)(F)F)c[n+]1[O-])c1nc-2c(C)[nH]1` (single isomer, unassigned) [Example 131], the Ki turned out to be 220 pM.

Consider `COC(=O)Nc1ccc2c(c1)NC(=O)CC[C@H](C)C[C@@H](c1ccc(-c3c(F)cccc3OC(F)F)c[n+]1[O-])c1nc-2c(C)[nH]1` (single isomer, unassigned) [Example 152-d], for which the Ki came out at 104000 pM.

Take `COC(=O)Nc1ccc2c(c1)NC(=O)C(C)CCCC(c1ccc(-c3c(F)ccc(Cl)c3F)c[n+]1[O-])c1nc-2c[nH]1` (single isomer, unassigned) [Example 114-a, (Z)-5-(3-chloro-2,6-difluorophenyl)-2-(2^4-((methoxycarbonyl)amino)-5-methyl-4-oxo-1^1H-3-aza-1(4,2)-imidazola-2(1,2) -benzenacyclononaphane-9-yl)pyridine 1-oxide]: the Ki was found to be 170 pM.

`COC(=O)Nc1ccc2c(c1)NC(=O)[C@@H](C)CCC[C@@H](c1ccc(-c3c(OC(F)F)ccc(F)c3F)c[n+]1[O-])c1nc-2c(C)[nH]1` (single isomer, unassigned) [Example 150-b]: the inhibition constant Ki came to 8490 pM.

Regarding `COC(=O)Nc1ccc2c(c1)NC(=O)C(C)CCCC(c1cc(OC)c(-c3c(F)ccc(Cl)c3F)c[n+]1[O-])c1cccc-2c1` (single isomer, unassigned) [Example 88-b, 5-(3-Chloro-2,6-difluorophenyl)-4-methoxy-2-(2^4-((methoxycarbonyl)amino)-5-methyl-4-oxo-3-aza-1(1,3),2(1,2) -dibenzenacyclononaphane-9-yl)pyridine 1-oxide], the Ki is 750 pM.

Consider `COC(=O)Nc1ccc2c(c1)NC(=O)CC[C@@H](C)C[C@@H](c1ccc(-c3c(F)cccc3OC(F)F)c[n+]1[O-])c1nc-2c(C)[nH]1` (single isomer, unassigned) [Example 152-c], for which the Ki worked out at 43600 pM.

Take `COC(=O)Nc1ccc2c(c1)NC(=O)C(C)CCCC(c1ccc(-c3c(F)ccc(Cl)c3F)c[n+]1[O-])c1nc-2c[nH]1` (single isomer, unassigned) [Example 114-c, (Z)-5-(3-chloro-2,6-difluorophenyl)-2-(2^4-((methoxycarbonyl)amino)-5-methyl-4-oxo-1^1H-3-aza-1(4,2)-imidazola-2(1,2) -benzenacyclononaphane-9-yl)pyridine 1-oxide]: the Ki worked out at 300 pM.

As for `COC(=O)Nc1ccc2c(c1)NC(=O)[C@H](C)CCC[C@H](c1ccc(-c3cc(F)ccc3OC(F)(F)F)c[n+]1[O-])c1nc-2c(C)[nH]1` (single isomer, unassigned) [Example 149-a], the inhibition constant (Ki) was determined as 170 pM.

As for `CCc1[nH]c2nc1-c1ccc(NC(=O)OC)cc1NC(=O)[C@H](C)CCC[C@@H]2c1ccc(-c2c(F)cccc2OC(F)F)c[n+]1[O-]` (single isomer, unassigned) [Example 146-a], the Ki came to 140 pM.

As for `COC(=O)Nc1ccc2c(c1)NC(=O)C(C)CCCC(c1ccc(-c3c(F)ccc(Cl)c3F)cn1)c1cc-2ccn1` (single isomer, unassigned) [Example 95-d, Methyl (9-(5-(3-chloro-2,6-difluorophenyl)pyridin-2-yl)-5-methyl-4-oxo-3-aza-1(4,2)-pyridina-2(1,2)-benzenacyclononaphane-2^4-yl)carbamate], the inhibition constant Ki stood at 2900 pM.

Take `COC(=O)Nc1ccc2c(c1)NC(=O)CCCC[C@H](c1ccc(-c3c(F)cccc3-n3cc(C(F)(F)F)cn3)c[n+]1[O-])c1nc-2c[nH]1` (single isomer, unassigned) [Example 115]: the Ki stood at 530 pM.

In the case of `COC(=O)Nc1ccc2c(c1)NC(=O)[C@@H](C)CCC[C@@H](c1ccc(-c3cc(F)ccc3OC(F)(F)F)c[n+]1[O-])c1nc-2c(C)[nH]1` (single isomer, unassigned) [Example 149-b], the inhibition constant (Ki) was found to be 7900 pM.

Regarding `COC(=O)Nc1ccc2c(c1)NC(=O)[C@H](C)CCC[C@H](c1ccc(-c3c(OC(F)F)ccc(F)c3F)c[n+]1[O-])c1nc-2c(C)[nH]1` (single isomer, unassigned) [Example 150-a], the Ki is 130 pM.

Turning to `COC(=O)Nc1ccc2c(c1)NC(=O)CCCC[C@H](c1ccc(-c3cc(Cl)ccc3-n3cnnn3)c[n+]1[O-])c1cc-2ncc1F` (single isomer, unassigned) [Example 71], the inhibition constant (Ki) was found to be 470 pM.

On to `COC(=O)Nc1ccc2c(c1)NC(=O)[C@H](C)CCC[C@@H](c1ccc(-c3c(F)ccc(Cl)c3F)c[n+]1[O-])c1cc-2ncc1F` (single isomer, unassigned) [Example 76-d], for which the Ki was found to be 110000 pM.

`C[C@@H]1CCC[C@H](c2ccc(-c3c(F)ccc(F)c3F)c[n+]2[O-])c2cccc(c2)-c2c(cnn2C(F)F)NC1=O` (single isomer, unassigned) [Example 170-a]: the Ki turned out to be 195000 pM.

For the molecule `COC(=O)Nc1ccc2c(c1)NC(=O)[C@H](C)CCC[C@@H](c1ccc(-c3c(F)cccc3F)c[n+]1[O-])c1nc-2c(C2CC2)[nH]1` (single isomer, unassigned) [Example 145-d], the Ki was 66200 pM.

Consider `COC(=O)Nc1ccc2c(c1)NC(=O)CC[C@@H](C)C[C@H](c1ccc(-c3c(F)cccc3OC(F)F)c[n+]1[O-])c1nc-2c(C)[nH]1` (single isomer, unassigned) [Example 152-a], for which the Ki came to 90 pM.

Take `COC(=O)Nc1ccc2c(c1)NC(=O)[C@H](C)CCC[C@H](c1ccc(-c3c(F)cccc3F)c[n+]1[O-])c1nc-2c(C2CC2)[nH]1` (single isomer, unassigned) [Example 145-a]: the inhibition constant Ki was 140 pM.

As to `COC(=O)Nc1ccc2c(c1)NC(=O)CCCCC(c1ccc(-c3c(F)ccc(Cl)c3F)c[n+]1[O-])c1ccnc-2c1` (single isomer, unassigned) [Example 93-a, 5-(3-Chloro-2,6-difluorophenyl)-2-(2^4-((methoxycarbonyl)amino)-4-oxo-3-aza-1 (2,4)-pyridina-2(1,2)-benzenacyclononaphane-9-yl)pyridine 1-oxide], the inhibitory constant (Ki) stood at 890 pM.

Take `COC(=O)Nc1ccc2c(c1)NC(=O)CC[C@H](C)C[C@H](c1ccc(-c3c(F)cccc3OC(F)F)c[n+]1[O-])c1nc-2c(C)[nH]1` (single isomer, unassigned) [Example 152-b]: the Ki was determined as 5500 pM.
